Assay results published in patent US7351843B2, “Furancarbonylguanidine derivatives, their preparation and pharmaceutical compositions containing them” (Korea Research Institute of Chemical Technology, priority 2003, dated 2008).

Protein sequences, listed by entry. Tags and fused reporters are not part of them.
UniProt P19634, whole entry: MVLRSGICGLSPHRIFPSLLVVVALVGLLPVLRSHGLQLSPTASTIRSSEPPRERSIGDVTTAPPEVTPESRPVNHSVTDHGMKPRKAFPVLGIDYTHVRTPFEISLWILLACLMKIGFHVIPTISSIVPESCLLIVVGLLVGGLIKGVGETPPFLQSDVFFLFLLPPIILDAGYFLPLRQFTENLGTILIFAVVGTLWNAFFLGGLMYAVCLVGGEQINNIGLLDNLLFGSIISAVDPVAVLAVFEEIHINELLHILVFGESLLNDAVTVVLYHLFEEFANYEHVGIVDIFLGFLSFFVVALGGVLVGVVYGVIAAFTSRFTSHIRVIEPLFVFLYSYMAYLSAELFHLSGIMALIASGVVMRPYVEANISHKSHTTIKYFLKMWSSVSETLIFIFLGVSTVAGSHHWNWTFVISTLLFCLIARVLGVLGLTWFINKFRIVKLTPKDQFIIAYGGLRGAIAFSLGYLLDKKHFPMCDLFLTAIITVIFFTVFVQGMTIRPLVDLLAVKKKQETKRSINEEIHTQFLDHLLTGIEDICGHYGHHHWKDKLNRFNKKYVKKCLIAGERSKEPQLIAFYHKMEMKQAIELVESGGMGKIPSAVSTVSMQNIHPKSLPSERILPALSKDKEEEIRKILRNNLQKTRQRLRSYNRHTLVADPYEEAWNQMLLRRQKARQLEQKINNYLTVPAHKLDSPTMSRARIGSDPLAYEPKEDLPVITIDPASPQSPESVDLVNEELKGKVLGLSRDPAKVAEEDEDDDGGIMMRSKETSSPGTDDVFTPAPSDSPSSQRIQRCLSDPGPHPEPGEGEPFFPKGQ

target: T1, human NHE-1 (Homo sapiens, UniProt P19634); assay: NHE-1 inhibitory effect in PS120/NHE-1 cells (recovery from intracellular acidification, BCECF fluorescence); format: cell-based; conditions: PS120 cells expressing human NHE-1; 50% inhibition of recovery from intracellular acidification
T1 construct: expressed in transfected cells; host or cells: PS120 cells (derived from CCL39 hamster fibroblasts)
Description: Following experiments were performed to investigate NHE-1 inhibitory effect of test samples in cells. Particularly, human NHE-1 was expressed in PS120 cells originated from CCL39. The cells were cultured in DMEM (Dulbecco's modified Eagle's medium) medium supplemented with 10% fetal bovine serum, 1% penicillin/streptomycin (100× solution) and 1% L-glutamine (200 mM aqueous solution). […] Then, the cells were washed once with PBS (phosphate buffer saline) and once again with Na-free buffer (138.2 mM choline chloride, 4.9 mM KCl, 1.5 mM CaCl2.2H2O, 1.2 mM MgSO4.7H2O, 1.2 mM KH2PO4, 15 mM D-glucose, 20 mM HEPES, at pH 7.4). […] In order to eliminate NH4Cl and to wash out BCECF-AM remaining outside of cells, PS120/NHE-1 cells were centrifuged and washed once with Na-free buffer. […] After 4 minutes from the cell addition, fluorescence (Excitation 485/444 nm, Emission 535 nm) was measured with a spectrofluorophotometer ([…]; Molecular Device) for 96-well plate. The measured fluorescent values were converted into pH by using high-K^+/nigericin technique. The acidified cells by NH4Cl prepulse were recovered by the action of NHE-1. […] In the meantime, cariporide was used as a control.

Substance	IC50 [µM]
[5-(2,5-dimethoxyphenyl)furan-2-ylcarbonyl]guanidine [Example 47]	3.4
[5-(4-aminophenyl)furan-2-ylcarbonyl]guanidine [Example 22]	> 30
[5-(4-fluorophenyl)furan-2-ylcarbonyl]guanidine [Example 3]	17
[5-(4-nitrophenyl)furan-2-ylcarbonyl]guanidine [Example 19]	> 30
